# Data published in PubChem BioAssay AID1942 (Johns Hopkins Ion Channel Center, 2009).
# Sequences of proteins named here, by UniProt entry; tags and fusion partners are left off.
# UniProt O88943, whole entry: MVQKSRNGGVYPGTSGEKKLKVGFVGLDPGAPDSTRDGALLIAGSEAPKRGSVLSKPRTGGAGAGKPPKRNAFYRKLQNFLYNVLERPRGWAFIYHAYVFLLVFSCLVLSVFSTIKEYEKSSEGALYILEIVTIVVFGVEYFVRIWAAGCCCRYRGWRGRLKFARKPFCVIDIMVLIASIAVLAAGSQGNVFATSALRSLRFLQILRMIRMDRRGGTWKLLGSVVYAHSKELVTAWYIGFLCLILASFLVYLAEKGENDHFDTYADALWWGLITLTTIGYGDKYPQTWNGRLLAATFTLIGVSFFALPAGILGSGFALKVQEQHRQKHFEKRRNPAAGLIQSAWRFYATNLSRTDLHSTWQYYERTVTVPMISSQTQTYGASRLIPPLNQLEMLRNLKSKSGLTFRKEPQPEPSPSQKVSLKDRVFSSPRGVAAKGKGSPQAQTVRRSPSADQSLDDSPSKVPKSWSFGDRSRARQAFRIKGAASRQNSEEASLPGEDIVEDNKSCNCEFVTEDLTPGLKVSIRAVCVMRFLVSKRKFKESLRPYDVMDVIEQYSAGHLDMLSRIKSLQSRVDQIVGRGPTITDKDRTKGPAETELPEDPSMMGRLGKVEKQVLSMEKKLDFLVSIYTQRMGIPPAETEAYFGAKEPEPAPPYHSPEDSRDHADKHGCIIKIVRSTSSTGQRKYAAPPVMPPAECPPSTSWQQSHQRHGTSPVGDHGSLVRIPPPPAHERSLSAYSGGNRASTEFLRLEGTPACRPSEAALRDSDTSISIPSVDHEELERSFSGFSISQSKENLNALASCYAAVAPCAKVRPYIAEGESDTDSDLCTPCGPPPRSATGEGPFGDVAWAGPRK
# The list shows a part of the results, in another mix than the full data. Calls of active or inactive are those of the source.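 Rule for the calls: active = activity change at or above the mean plus 3 SD of buffer wells without dofetilide, per plate; inactive = the rest.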
# Molecular target: Potassium voltage-gated channel subfamily KQT member 2 (Rattus norvegicus) (UniProt O88943)
# Assay: rat KCNQ2 channel activation by compounds alone, confirmation, counter-screen for hERG block protector project, cell-based, CHO, FluxOR thallium flux (AID 1942);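 note: normalized value minus buffer-control mean plus three SD of buffer wells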
# Conditions: CHO-KCNQ2 cells, FluxOR thallium flux fluorescence; at 10 µM; active compounds read high
row,SMILES,"activity change, less the hit threshold"
1,CCOC(=O)N1CCC(Nc2ccc(OC)cc2)CC1,inactive: -6.8%
